{"source": "PubChem BioAssay AID719", "about": "(SRMLSC, 2007)", "note": "Only a part is listed here, and it is no random draw. Calls of active or inactive are those of the source.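 The calls were made as follows: active = viability at or below 50% in the single dose screen; inactive = viability above 50%.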"}
{"assay": "antiproliferative effect on LL 47 fibroblasts – human, LL 47 cells, CellTiter-Glo luminescence, primary screen (AID 719);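 also: compound exposure lasted 72 h before the ATP readout; 100% = median luminescence of untreated cell-only wells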", "conditions": "LL 47 human lung fibroblast viability, ATP luminescence; at 10 µM; hits give low values", "in_short": "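Material: human LL 47 lung fibroblast cells; quantity: 1,150 cells/well; medium: IMEM plus 15% FBS; doses: 0.1% DMSO in all compound wells; timing: overnight attachment after seeding, then 72 h compound exposure at 37 °C; detection: CellTiter-Glo luminescence; measure: % viability of median cell-only signal; controls: cell-only wells, no compound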"}
{"molecule": "Cc1c2non([O-])c-2c(C)[n+](=O)[n+]1[O-]", "viability": "inactive: 84.8%"}
{"molecule": "Oc1ccccc1CNc1ccccn1", "viability": "inactive: 98.5%"}
{"molecule": "CN1CCCC(OC(=O)C(c2ccccc2)c2ccccc2)C1", "note": "(stereo unspecified)", "viability": "inactive: 90.2%"}
{"molecule": "CCOP(=O)(Nc1ccccc1)OCC", "viability": "inactive: 98.8%"}
{"molecule": "CC1CCN(C(=O)Oc2c(Cl)cc(Cl)c3cccnc23)CC1", "viability": "inactive: 92.6%"}
{"molecule": "O=[N+]([O-])c1cccc2n[nH]nc12", "viability": "inactive: 106%"}
{"molecule": "CCc1nc2c(n1)c1c(non1O)c1c2no[n+]1[O-]", "viability": "active: 12.7%"}
{"molecule": "O=P(Nc1nccs1)(c1ccccc1)c1ccccc1", "viability": "inactive: 94.2%"}
{"molecule": "c1nnnn1CCn1cnnn1", "viability": "inactive: 105%"}
{"molecule": "O=C(OC1CN2CCC1CC2)c1cccc(Cl)c1", "note": "(stereo unspecified)", "viability": "inactive: 107%"}
{"molecule": "COC(=O)c1cc2c(s1)N=C(c1ccccc1)N(C)P2(=O)N1CCOCC1", "note": "(stereo unspecified)", "viability": "inactive: 99.1%"}
{"molecule": "O=P1(Nc2nc3ccc(Cl)cc3s2)COc2ccccc2O1", "note": "(stereo unspecified)", "viability": "inactive: 102%"}
{"molecule": "Cc1cccc(OCC(=O)OC2CN3CCC2CC3)c1", "note": "(stereo unspecified)", "viability": "inactive: 103%"}
{"molecule": "CCOP1(=S)c2c(C)nn(CCC#N)c2N=C(c2ccc(F)cc2)N1C", "note": "(stereo unspecified)", "viability": "inactive: 89.9%"}
{"molecule": "CCOP1(=S)c2c(C)nn(CCC#N)c2N=C(c2ccccc2F)N1C", "note": "(stereo unspecified)", "viability": "inactive: 89.2%"}
{"molecule": "O=P1(Nc2ncccn2)COc2ccccc2OC1", "viability": "inactive: 98.4%"}
{"molecule": "Cc1ccc(OCC(=O)OC2CN3CCC2CC3)cc1", "note": "(stereo unspecified)", "viability": "inactive: 96.4%"}
{"molecule": "O=P1(Nc2ccc(Br)cn2)COc2ccccc2OC1", "viability": "inactive: 102%"}
{"molecule": "Cc1nn(-c2ccccc2)c2c1P(=O)(N1CCOCC1)N(C)C(c1ccccc1)=N2", "note": "(stereo unspecified)", "viability": "inactive: 97.4%"}
{"molecule": "CC1(CBr)Cn2c(nc3ccccc3c2=O)S1", "note": "(stereo unspecified)", "viability": "inactive: 87.3%"}
{"molecule": "O=P1(Nc2ccccn2)COc2ccccc2OC1", "viability": "inactive: 97.3%"}
{"molecule": "CCC(C)N(CC(C)C)C(=S)SC(NC(C)=O)C(Cl)(Cl)Cl", "note": "(stereo unspecified)", "viability": "inactive: 52.1%"}
{"molecule": "COP1(=S)c2c(C)nn(CCC#N)c2N=C(c2ccc(F)cc2)N1C", "note": "(stereo unspecified)", "viability": "inactive: 94.3%"}
{"molecule": "O=C(COc1ccccc1)OC1CN2CCC1CC2", "note": "(stereo unspecified)", "viability": "inactive: 98.1%"}
{"molecule": "ClCCSc1nnc(-c2cccnc2)o1", "viability": "inactive: 101%"}
{"molecule": "O=C(OC1CN2CCC1CC2)C12CC3CC(CC(C3)C1)C2", "note": "(stereo unspecified)", "viability": "inactive: 93.9%"}
